Assay results from PubChem BioAssay AID624125 (The Scripps Research Institute Molecular Screening Center, 2012).
The entries are a selection whose mix differs from that of the whole data set. Some structures show a salt or complex split into parts, the way the source records it. The source made the active and inactive calls.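 Rule for the calls: active = inhibition above its plate's cutoff, the mean inhibition of sample wells plus 3 SD (cut at about 27% in these data); inactive = the rest.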

Amino acid sequences for entries named in this document (tags omitted).
UniProt P08173, whole entry: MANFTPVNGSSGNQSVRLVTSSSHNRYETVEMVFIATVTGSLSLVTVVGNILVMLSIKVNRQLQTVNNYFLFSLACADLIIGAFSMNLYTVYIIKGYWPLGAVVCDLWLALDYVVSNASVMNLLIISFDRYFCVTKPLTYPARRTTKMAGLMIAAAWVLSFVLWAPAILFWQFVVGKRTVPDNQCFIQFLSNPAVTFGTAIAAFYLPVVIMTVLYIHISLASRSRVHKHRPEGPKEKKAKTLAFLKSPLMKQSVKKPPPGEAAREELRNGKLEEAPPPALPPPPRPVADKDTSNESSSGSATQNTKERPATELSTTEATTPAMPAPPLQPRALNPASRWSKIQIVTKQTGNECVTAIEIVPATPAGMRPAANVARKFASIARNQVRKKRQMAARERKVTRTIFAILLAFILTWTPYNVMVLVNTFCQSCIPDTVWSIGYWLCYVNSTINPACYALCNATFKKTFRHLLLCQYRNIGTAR

target: Muscarinic acetylcholine receptor M4 (Homo sapiens) (UniProt P08173); assay: human M4 muscarinic receptor antagonists, primary screen, CHO cells, Fluo-8 calcium fluorescence (AID 624125); settings: CHO-hM4 cells, ACh EC80, Fluo-8 calcium fluorescence; at 3 µM; hits give high values;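 note: 0% = acetylcholine EC80 with DMSO and 100% = DMSO without agonist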

Compound	inhibition
CC1=NCCc2c1[nH]c1ccccc21.O=[N+]([O-])c1cc([N+](=O)[O-])c(O)c([N+](=O)[O-])c1	inactive: 5.54%
O=C(O)c1cccc(Nc2c([N+](=O)[O-])cc([N+](=O)[O-])cc2[N+](=O)[O-])c1	inactive: 2.47%
CP(=O)(Nc1cccc(Br)c1)Oc1ccccc1 (centres undefined)	inactive: 2.95%
Cc1cc(C)cc(OP(C)(=O)Nc2ccccn2)c1 (centres undefined)	inactive: -0.52%
Cc1ccc(C)c(NP(C)(=O)Oc2ccccc2)c1 (centres undefined)	inactive: -6.39%
COc1ccccc1OP(C)(=O)Nc1cccc(Br)c1 (centres undefined)	inactive: -4.36%
COc1cc(C(=O)NCC2(N3CCOCC3)CCCCC2)cc(Cl)c1OC(C)C	inactive: 9.11%
Cc1cc(C)cc(OP(C)(=O)Nc2ccc(C)cc2C)c1 (centres undefined)	inactive: -6.64%
CCOC(=O)c1ccc(NP(C)(=O)Oc2cc(C)cc(C)c2)cc1 (centres undefined)	inactive: -0.25%
O=[N+]([O-])c1cc([N+](=O)[O-])c(-c2cnn(-c3ccccc3)c2)c([N+](=O)[O-])c1	inactive: 10.8%
Cc1nc2ccc3ccccc3c2s1.O=[N+]([O-])c1cc([N+](=O)[O-])c(O)c([N+](=O)[O-])c1	inactive: -6.99%
O=[N+]([O-])c1cc([N+](=O)[O-])c(-n2nnc3ccccc32)c([N+](=O)[O-])c1	inactive: -4.22%
CN(Cc1cccnc1)C(=O)COc1ccc(Cl)c(Cl)c1.O=[N+]([O-])c1cc([N+](=O)[O-])c(O)c([N+](=O)[O-])c1	inactive: -9.23%
COc1ccccc1OP(C)(=O)Nc1c(C)cccc1C (centres undefined)	inactive: -4.59%
CP(=O)(Nc1ccc(SC(F)(F)F)cc1)Oc1ccccc1 (centres undefined)	inactive: 1.23%
CCCOc1ccc(NP(C)(=O)Oc2ccc(Cl)cc2)cc1 (centres undefined)	inactive: -3.34%
COc1ccc(-c2ccccn2)cc1.O=[N+]([O-])c1cc([N+](=O)[O-])c(O)c([N+](=O)[O-])c1	inactive: 0.08%
CCOC(=O)C(CC)C1=NC(C)(C)Cc2ccccc21.O=[N+]([O-])c1cc([N+](=O)[O-])c(O)c([N+](=O)[O-])c1 (centres undefined)	inactive: -8.21%
O=[N+]([O-])c1cc([N+](=O)[O-])c(Nc2nnnn2CCO)c([N+](=O)[O-])c1	inactive: 5.44%
CC1=C2N=C(C=C3N=C(C(C)=C4[N-][C@@](C)([C@@H]5N=C1[C@](C)(CCC(=O)NC[C@@H](C)OP(=O)([O-])O[C@H]1[C@@H](O)[C@@H](n6cnc7cc(C)c(C)cc76)O[C@@H]1CO)[C@H]5CC(N)=O)[C@@](C)(CC(N)=O)[C@@H]4CCC(N)=O)[C@@](C)(CC(N)=O)[C@@H]3CCC(N)=O)C(C)(C)[C@@H]2CCC(N)=O.[C-]#N.[Co+3]	inactive: -0.53%
CN(C)C1(CNC(=O)c2ccc(S(C)(=O)=O)cc2)CCCCC1	inactive: -9.02%
CP(=S)(Nn1cnnc1)Oc1ccccc1 (centres undefined)	inactive: -1.28%
COc1ccccc1OP(C)(=O)Nc1ccccc1 (centres undefined)	inactive: -2.17%
CP(=O)(Nc1ccccc1Br)Oc1ccccc1 (centres undefined)	inactive: -2.16%
CCCCOc1ccc(C(=O)NCC2(N3CCCCC3)CCCCC2)cc1OC	inactive: -1.79%

Compound	inhibition
CCOP(C)(=S)SCC(=O)NC(C)C(=O)O (centres undefined)	inactive: -7.43%
O=[N+]([O-])c1cc([N+](=O)[O-])c(O)c([N+](=O)[O-])c1.c1ccc(Oc2ccncc2)cc1	inactive: -5.29%
CCOC(=O)c1ccc(NP(C)(=O)Oc2ccc(OC)cc2)cc1 (centres undefined)	inactive: 2.81%
CP(=O)(Nc1ccccn1)Oc1ccc(Cl)cc1 (centres undefined)	inactive: -9.43%
CP(=O)(Oc1ccccc1)OC(c1ccccc1)C(F)(F)F (centres undefined)	inactive: 0.94%
CP(=O)(Nc1ccc(SC(F)(F)F)cc1)Oc1ccc(Cl)cc1 (centres undefined)	inactive: -2.09%
Cc1cccc(C)c1OP(C)(=O)Nc1ccc(SC(F)(F)F)cc1 (centres undefined)	inactive: -6.61%
Cc1ccc(Nc2c([N+](=O)[O-])cc([N+](=O)[O-])cc2[N+](=O)[O-])cc1	inactive: -6.03%
Cc1cc(C)cc(OP(C)(=O)Nc2ccc(SC(F)(F)F)cc2)c1 (centres undefined)	inactive: -2.32%
CCc1ccc(OP(C)(=O)N2CCN(c3ccc([N+](=O)[O-])cc3)CC2)cc1 (centres undefined)	inactive: 5.76%
CP(=O)(NC(=O)Nc1ccccc1)Oc1ccccc1 (centres undefined)	inactive: -0.53%
COc1ccccc1-c1ccccn1.O=[N+]([O-])c1cc([N+](=O)[O-])c(O)c([N+](=O)[O-])c1	inactive: -6.34%
O=C(OC1CN2CCC1CC2)C12CC3CC(CC(C3)C1)C2 (centres undefined)	active: 95.1%
CCOC(=O)c1ccc(NP(C)(=O)Oc2ccccc2)cc1 (centres undefined)	inactive: -0.12%
Cc1ccc(NP(C)(=O)Oc2ccccc2)c(C)c1 (centres undefined)	inactive: -0.86%
COc1ccccc1OP(C)(=O)Nc1ccc(C)cc1 (centres undefined)	inactive: -3.56%
COc1ccc(OP(C)(=O)Nc2cccc(F)c2)cc1 (centres undefined)	inactive: 4.16%
COc1ccccc1OP(C)(=O)Nc1cc(Cl)ccc1C (centres undefined)	inactive: -1.51%
Cc1cc(C)cc(OP(C)(N)=O)c1 (centres undefined)	inactive: -14.9%
O=[N+]([O-])c1cc([N+](=O)[O-])c(Nc2cccnc2)c([N+](=O)[O-])c1	inactive: -5.7%
COc1cc(C(=O)NCC2(N3CCOCC3)CCCCC2)ccc1OCC(C)C	inactive: -7.15%
Cc1cccc(C)c1OP(C)(N)=O (centres undefined)	inactive: -12.1%
CC(C)(C)c1ccc(OP(C)(=O)Nc2ccc(SC(F)(F)F)cc2)cc1 (centres undefined)	inactive: -11%
O=[N+]([O-])c1ccc2c(c1)C=Nc1ccccc1O2	inactive: 3.85%
CP(=O)(OCCOc1ccccc1)OCCOc1ccccc1	inactive: 4.75%

Compound	inhibition
CP(=O)(Nc1ccc(Cl)cc1Cl)Oc1ccccc1 (centres undefined)	inactive: -5.99%
CCCCCCCCCCCCCCCC1C[N+](C)(C)CCOP(C)(=O)O1 (centres undefined)	inactive: 9.84%
Cc1cc(C)cc(OP(C)(=O)Nc2cccc(C(F)(F)F)c2)c1 (centres undefined)	inactive: -7.44%
O=C1C(O)=C([N+](=O)[O-])C(=O)C(O)=C1[N+](=O)[O-]	inactive: 0.02%
COc1ccc(OP(C)(=O)Nc2ccccc2Br)cc1 (centres undefined)	inactive: -5.57%
COc1ccccc1OP(C)(=O)Nc1ccc(C)c(C)c1 (centres undefined)	inactive: 9.93%
O=[N+]([O-])c1cc([N+](=O)[O-])c(Nc2ccccn2)c([N+](=O)[O-])c1	inactive: 13.6%
Cc1c(NP(C)(=O)Oc2ccc(C(C)C)cc2)c(=O)n(-c2ccccc2)n1C (centres undefined)	inactive: -3.65%
CCc1ccc(OP(C)(=O)O)cc1	inactive: -2.8%
COc1ccccc1OP(C)(=O)Nc1ccc(C)cc1C (centres undefined)	inactive: 1.64%
CP(=O)(Nc1ccccn1)Oc1ccccc1 (centres undefined)	inactive: -6.6%
COc1ccccc1OP(C)(=O)Nc1ccc(Br)cc1 (centres undefined)	inactive: -3.87%
COc1ccc(OP(C)(=O)Nc2ccccn2)cc1 (centres undefined)	inactive: -8.53%
CP(=O)(Nc1ccc(Cl)cc1)Oc1ccc(F)cc1 (centres undefined)	inactive: -6.19%
CC(C)(C)c1ccc(OP(C)(=O)O)cc1	inactive: -0.41%
COc1ccccc1OP(C)(=O)Nc1ccccc1Br (centres undefined)	inactive: -6.88%
CN(C)C(=O)c1c([N+](=O)[O-])cc([N+](=O)[O-])cc1[N+](=O)[O-]	inactive: -12.3%
COc1ccc(OP(C)(=O)Nc2ccc(Br)cc2)cc1 (centres undefined)	inactive: -6.22%
CCc1ccc(OP(C)(=O)Nc2cccnc2)cc1 (centres undefined)	inactive: -12.5%
CP(=O)(Oc1ccccc1)N1CCOC1=O (centres undefined)	inactive: 7.3%
COc1ccccc1OP(C)(=O)Nc1c(C)n(C)n(-c2ccccc2)c1=O (centres undefined)	inactive: -4.32%
CP(=O)(OC12CC3CC(CC(C3)C1)C2)OC12CC3CC(CC(C3)C1)C2	inactive: -9.47%
CCOC(=O)c1ccc(NP(C)(=O)Oc2ccc(Cl)cc2)cc1 (centres undefined)	inactive: -5.09%
O=[N+]([O-])c1cc([N+](=O)[O-])c(NCC2CCS(=O)(=O)C2)c([N+](=O)[O-])c1 (centres undefined)	inactive: -1.91%
Cc1cc(-c2cccc3ccccc23)c(C)cn1.O=[N+]([O-])c1cc([N+](=O)[O-])c(O)c([N+](=O)[O-])c1	inactive: -3.4%

Compound	inhibition
O=[N+]([O-])c1ccc(OP2(=O)COCCO2)cc1 (centres undefined)	inactive: -1.04%
O=C(OC1CN2CCC1CC2)c1cccc(Cl)c1 (centres undefined)	active: 47.7%
Cc1c(C(c2ccc3c(c2)OCO3)c2c(C)n(C)n(-c3ccccc3)c2=O)c(=O)n(-c2ccccc2)n1C.O=[N+]([O-])c1cc([N+](=O)[O-])c(O)c([N+](=O)[O-])c1	inactive: 6%
CN(C)C1(CNC(=O)c2ccc(Cl)c(S(N)(=O)=O)c2)CCCCC1	inactive: -9.26%
COc1ccc(OP(C)(=O)Nc2cccc(Br)c2)cc1 (centres undefined)	inactive: 14.4%
COc1ccc(NP(C)(=O)Oc2ccccc2OC)cc1 (centres undefined)	inactive: 2.85%
CP(=O)(Nc1ccc2c(c1)OCCO2)Oc1ccccc1 (centres undefined)	inactive: -0.48%
O=[N+]([O-])c1cc([N+](=O)[O-])c(C(F)(F)F)c([N+](=O)[O-])c1O	inactive: 8.38%
Cc1ccccc1NP(C)(=O)Nc1ccccc1C	inactive: -6.03%
CP(=O)(Nc1ccc(SC(F)(F)F)cc1)Oc1ccc(F)cc1 (centres undefined)	inactive: 10.6%
CCOP(C)(=S)SCC(=O)NC(C)(CC)C(=O)O (centres undefined)	inactive: 1.45%
O=C(OC1CN2CCC1CC2)c1ccc([N+](=O)[O-])cc1 (centres undefined)	inactive: -17.6%
COc1ccc2c(c1O)-c1c(O)c(OC)cc3c1[C@H](C2)[N+](C)(C)CC3.O=[N+]([O-])c1cc([N+](=O)[O-])c([O-])c([N+](=O)[O-])c1[O-]	inactive: -7.6%
O=[N+]([O-])c1cc([N+](=O)[O-])c(Nc2ccc(Cl)cc2)c([N+](=O)[O-])c1	inactive: 7.55%
CC(C)c1ccc(OP(C)(=O)Nc2ccc(SC(F)(F)F)cc2)cc1 (centres undefined)	inactive: -6.11%
CP(=O)(Nc1ccccc1F)Oc1ccccc1 (centres undefined)	inactive: -5.81%
O=C(OC1CN2CCC1CC2)c1ccccc1 (centres undefined)	active: 47.4%
Cc1c([N+](=O)[O-])cc([N+](=O)[O-])c(Br)c1[N+](=O)[O-]	inactive: -15.4%
O=[N+]([O-])c1cc([N+](=O)[O-])c(OC2CCCCC2O)c([N+](=O)[O-])c1 (centres undefined)	inactive: -9.39%
CCCCCOc1ccc(NP(C)(=O)Oc2ccc(Cl)cc2Cl)cc1 (centres undefined)	inactive: -2.56%
CP(=O)(Nc1ccccc1)Oc1ccc(F)cc1 (centres undefined)	inactive: -22.9%
CCN(CC)CCCNc1ccccc1[N+](=O)[O-].O=[N+]([O-])c1cc([N+](=O)[O-])c(O)c([N+](=O)[O-])c1	inactive: 19.8%
COc1ccc(OP(C)(=O)Nc2ccc(SC(F)(F)F)cc2)cc1 (centres undefined)	inactive: 2.62%
CCOC(=O)c1ccc(NP(C)(=O)Oc2ccc(F)cc2)cc1 (centres undefined)	inactive: 2.74%
